What was measured:
[1] = target: hydrilla PDS position 304 Arginine, His-tagged (Hydrilla verticillata, UniProt Q66PY0); assay: Cross-resistance testing, His-tagged column-purified PDS (Table 2A); assay type: biochemical; conditions: Arginine at 304 (reference), 30 min
Source text: The alternative approach utilized His-tagging and column purification of the mutant PDS protins.
In order to express pds in bacteria, deletion clones were made for each of the three potential start codons with and without ATG. […] The forward primers used were ORF (5′ […] 3′), ORF-ATG (5′ […] 3′), 3_ORF (5′[…] 3′) and 3_ORF-ATG (5′ […] 3′). The resulting plasmids were named pORF, pORF-ATG (minus ATG codon), p3ORF and p3ORF-ATG. The pds-containing EcoRI-fragments of these plasmids were subcloned into the EcoRI site of pRSETb vector (Invitrogen) for Histidine tagging and bacterial expression. The resulting constructs were pHy4SET, pHy4SET-ATG (minus ATG), p3ORFSET and p3ORFSET-ATG. […]
All pRSET derived constructs were transformed into BL21(DE3)pLysS cells (Invitrogen), induced with IPTG for protein expression, and the His tag overproduced proteins analyzed by Western blot using Anti-HisG antibody (Invitrogen, cat. #R940-25). […]
His-tagged, purified proteins prepared as described above were transferred to the assay buffer on a PD10 column (Amersham Bioscience) and the concentration was adjusted to 100 μg/mL. […] I^50 values were calculated from the regressions.

Protein sequences, listed by entry. Tags and fused reporters are not part of them. Residues count along the entry.
UniProt Q66PY0, 77-580: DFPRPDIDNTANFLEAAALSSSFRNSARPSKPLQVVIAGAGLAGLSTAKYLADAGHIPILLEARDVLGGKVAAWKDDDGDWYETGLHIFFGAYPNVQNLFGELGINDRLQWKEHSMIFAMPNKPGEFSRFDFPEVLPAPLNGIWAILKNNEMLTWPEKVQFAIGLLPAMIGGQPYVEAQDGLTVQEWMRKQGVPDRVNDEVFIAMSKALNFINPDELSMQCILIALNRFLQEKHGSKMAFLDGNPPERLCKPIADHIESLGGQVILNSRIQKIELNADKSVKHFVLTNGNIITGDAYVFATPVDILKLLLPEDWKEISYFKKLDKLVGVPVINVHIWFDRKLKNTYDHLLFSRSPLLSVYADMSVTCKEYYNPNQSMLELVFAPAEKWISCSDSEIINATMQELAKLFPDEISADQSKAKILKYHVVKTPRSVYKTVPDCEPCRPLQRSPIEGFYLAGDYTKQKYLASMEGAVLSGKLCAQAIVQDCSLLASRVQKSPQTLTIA
UniProt Q66PY0, 1-580: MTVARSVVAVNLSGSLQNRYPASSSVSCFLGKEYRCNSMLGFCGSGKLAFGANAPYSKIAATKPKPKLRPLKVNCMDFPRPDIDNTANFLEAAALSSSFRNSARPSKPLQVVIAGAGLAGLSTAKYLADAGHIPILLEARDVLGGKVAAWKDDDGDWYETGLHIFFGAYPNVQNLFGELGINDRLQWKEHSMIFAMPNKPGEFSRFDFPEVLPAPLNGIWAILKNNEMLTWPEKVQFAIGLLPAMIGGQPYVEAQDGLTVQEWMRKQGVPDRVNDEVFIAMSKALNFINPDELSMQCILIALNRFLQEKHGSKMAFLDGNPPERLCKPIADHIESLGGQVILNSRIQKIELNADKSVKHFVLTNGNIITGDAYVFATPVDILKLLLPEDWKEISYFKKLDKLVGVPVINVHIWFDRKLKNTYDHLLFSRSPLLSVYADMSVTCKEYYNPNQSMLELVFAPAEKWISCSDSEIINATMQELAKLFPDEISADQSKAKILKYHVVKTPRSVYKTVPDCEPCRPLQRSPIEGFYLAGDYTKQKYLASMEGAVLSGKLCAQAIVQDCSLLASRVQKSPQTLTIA
UniProt Q66PY0, 1-580 R304S: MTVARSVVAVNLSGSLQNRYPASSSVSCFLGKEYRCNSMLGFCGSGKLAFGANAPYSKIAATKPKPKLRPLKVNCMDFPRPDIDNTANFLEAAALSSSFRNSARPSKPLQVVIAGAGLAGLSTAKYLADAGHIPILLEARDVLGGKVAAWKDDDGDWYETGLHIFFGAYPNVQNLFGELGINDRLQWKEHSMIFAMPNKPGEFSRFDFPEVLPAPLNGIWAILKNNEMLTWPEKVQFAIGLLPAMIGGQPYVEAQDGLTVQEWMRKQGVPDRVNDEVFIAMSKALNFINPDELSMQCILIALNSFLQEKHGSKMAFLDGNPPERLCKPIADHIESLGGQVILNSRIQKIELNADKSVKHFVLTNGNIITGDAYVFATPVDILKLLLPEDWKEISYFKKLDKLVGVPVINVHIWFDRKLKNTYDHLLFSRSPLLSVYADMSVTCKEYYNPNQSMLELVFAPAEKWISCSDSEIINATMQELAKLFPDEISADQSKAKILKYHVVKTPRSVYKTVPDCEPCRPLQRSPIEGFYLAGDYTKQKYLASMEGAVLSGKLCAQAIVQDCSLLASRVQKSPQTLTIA

[2] = system: Synechocystis PDS with mutation corresponding to Leu^542→Arg; conditions: prior work; cited from earlier work
[3] = target: hydrilla PDS position 304 Arginine (wildtype) (Hydrilla verticillata, UniProt Q66PY0); assay: Cross resistance to bleaching herbicides, in vitro PDS inhibition, non-His-tagged (Table 2); assay type: biochemical; conditions: Arginine at 304 (reference)
Procedure: (§1) The expression constructs in Table 2 were derived from an original clone of the susceptible PDS gene from Hydrilla and then the Arg^304 was mutated to the listed amino acid. Expression was under the control of the lac promoter but in frame with the initiation codon of the LacZalpha-ccdB gene in the pCR4-TOPO vector (Invitrogen Inc., CA, Cat. #K4575-01).
(§2) All mutagenesis was performed, unless stated otherwise, using the TOPO-vector containing the wildtype (H4) PDS-sequence, which was extracted from an overnight culture with the Qiagen Plasmid Prep Kit as described above. The amount of the extracted plasmid was diluted to 10 ng/μl and used as template in a mutagenesis-procedure using the QuikChange Site-directed Mutagenesis Kit (Stratagene, Calif., #200518). The design of the mutagenesis-primers was conducted according to the manufacturers protocol to enable the specific change of Arg^304-codon to code for the desired amino acid. Primers (purchased from MWG-Biotech) and their introduced amino acid change are listed below with the changed codon underlined:
(§3) The reactions were performed according to the manufacturers protocol. […] Sequences were assembled and analyzed using Seqman. […]
(§4) Phytoene desaturase activity and its inhibition by herbicides was determined using an in vitro system using components derived from the in vivo production of phytoene and phytoene desaturase proteins. […]

[4] = target: hydrilla PDS Arg^304 → Serine (Hydrilla verticillata, UniProt Q66PY0, R304S); assay: as above; assay type: biochemical; conditions: Serine at 304, construct in frame with LacZalpha-ccdB, read-out: I50
Procedure: as §1, §2, §3, §4

SMILES | R/S [1] | resistance provided by the mutation [2] | R/S [3] | IC50 [4]
CNc1cnn(-c2cccc(C(F)(F)F)c2)c(=O)c1Cl [Norflurazon] | 1 | high level of resistance | 1 | –
O=C(Nc1ccc(F)cc1)c1cccc(Oc2cccc(C(F)(F)F)c2)n1 [Piconilafen, Picolinafen] | – | – | – | 2300 nM
